Laboratory results taken from ChEMBL document CHEMBL1151474, “Replication of Colonic Crohn's Disease Mucosal Escherichia coli Isolates within Macrophages and Their Susceptibility to Antibiotics” (Antimicrob Agents Chemother, 2008).

Tested on: Escherichia coli
Assay: Antibacterial activity against Escherichia coli ATCC 25922 after 24 hrs by Etest antibiotic concentration gradient method
Assay type: functional, organism-based

Question: Which Activity does the source give for `O=C(O)c1cn(C2CC2)c2cc(N3CCNCC3)c(F)cc2c1=O` [CIPROFLOXACIN] here?
Answer: Active

Activity calls are given as the source filed them. No cut-off for these calls is given here.
